Target: GLP-1 receptor (Homo sapiens, UniProt P43220)
Assay: Functional assay-cAMP synthesis, luciferase reporter in HEK293 cells co-transfected with GLP-1 receptor

The chains behind the UniProt entries cited, without tags or fusion partners. Residues count along the entry.
UniProt P43220, 24-463, species assumed: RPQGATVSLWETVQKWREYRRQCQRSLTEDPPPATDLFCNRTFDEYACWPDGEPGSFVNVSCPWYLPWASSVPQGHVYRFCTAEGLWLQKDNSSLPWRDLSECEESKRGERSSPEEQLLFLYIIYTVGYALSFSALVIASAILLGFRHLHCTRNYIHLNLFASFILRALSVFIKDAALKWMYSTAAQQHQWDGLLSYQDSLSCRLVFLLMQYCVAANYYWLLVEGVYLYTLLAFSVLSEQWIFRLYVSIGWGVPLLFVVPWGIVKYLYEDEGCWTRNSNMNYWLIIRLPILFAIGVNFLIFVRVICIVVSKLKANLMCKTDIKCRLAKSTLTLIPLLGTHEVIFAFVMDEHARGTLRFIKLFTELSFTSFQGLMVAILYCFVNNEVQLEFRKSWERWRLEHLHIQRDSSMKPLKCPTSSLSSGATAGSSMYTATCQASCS

## X1SQGT FTSDY SKYLD ERRAK DEVC*W LMNTa
  Parent w/PEG % Potency Relative to Native GLP-1R: 9.3%
